Literature values as cited in patent US12533344B2, “Formulations” (Glaukos Corporation, priority 2021, dated 2026).

Conditions: for Effective Buffering Range: pH range

Substance | Effective Buffering Range | pKa (buffers and stabilizers of Table 1)
Acetic acid/acetate buffer | 3.0-6.2 | –
Boric acid/borate buffer | 8.0-10.0 | 9.14
